A word on the inhibition: it is the drop in the measured response relative to a control, in per cent.

Molecules are shown by their SMILES. The list shows a part of the results, in another mix than the full data. The source made the active and inactive calls. No stated cut-off is given here; in the data, active means inhibition above about 50% (passing the limit was not always enough); inconclusive means no clear call, values can overlap the other calls; inactive means below about 31%.

The nature of the experiment: blockers of Vif multimerization in cells – imaging, HEK293T, single point, primary screen (AID 602346). The note with it: Vif self-association by quenched fluorescence, 24 h, at 7.49 µM, active compounds read high.
Take `CP(=O)(Nc1ccc(SC(F)(F)F)cc1)Oc1ccccc1` (configuration not stated): the inhibition was inactive: -17.1%.
For `NC(=O)Nc1ccc([As](=O)(O)O)cc1`, the inhibition was inactive: -1.56%.

For the origin of these results see PubChem BioAssay AID602346 (Broad Institute, 2012).
